For data set [1] the following is noted: single and multiple oral doses, healthy subjects; cited from earlier work.
Data set [2] has as its system plasma anti-FXa activity, PT, aPTT. The conditions noted are these: single 60 or 180 mg dose, healthy subjects; data on file.
In data set [3] the test system is PT, INR, aPTT, intrinsic FX activity, thrombin generation, anti-FXa. The conditions noted are these: cited from earlier work.
For data set [4], the system named is thrombin generation and platelet activation. The following applies: cited from earlier work.
The conditions of data set [5]: Severe impairment: CLCR <30 mL/min; cited from earlier work.
The test system of another data set is intrinsic FX activity. The conditions noted are these: patients with AF, cited from earlier work.

Values joined by “and” are separate entries in the source; they are usually repeats but may differ in a detail not shown here. Identical values can stand only once. Like-named read-outs stand apart in the source and are kept apart here.

In the case of `CN1CCc2nc(C(=O)N[C@@H]3C[C@@H](C(=O)N(C)C)CC[C@@H]3NC(=O)C(=O)Nc3ccc(Cl)cn3)sc2C1` [edoxaban], in data set [1], the “time to peak plasma concentration (Cmax)” value is 1 to 2 h and 1.0 to 2.0 h. Moreover, the “relation of plasma edoxaban concentrations to anti-FXa activity” value in data set [2] was “linearly related”. Further, in data set [3], the “anticoagulant effects of edoxaban on coadministration of aspirin” value is given as “not affected”. The “effect on thrombin generation assay parameters vs either drug alone” value in data set [3] (edoxaban 60 mg and subcutaneous enoxaparin 1 mg/kg) is given as “increased effect”. Also, in data set [4], the “duration of anticoagulant effects” value was 24 h. Further, the “inhibition of thrombin generation and platelet activation” value in data set [4] (single doses of 30, 60 and 120 mg) is recorded as “significant inhibition”. In addition, the “AUC∞” value in data set [5] is given as 857 ± 199 ng·h/mL. The “duration of intrinsic FX activity suppression” value is on record as 18.8 h in the data set with intrinsic FX activity (30 mg twice daily regimen) and 13.7 h with intrinsic FX activity (60 mg once daily regimen).

Values taken from PMC4875962 (Clinical Pharmacokinetics, 2015).
